Where a name gives a salt, the structure may show the parent alone.
Target: Human IP6K1 (Homo sapiens, UniProt Q92551)
Test: IP6K1 high-throughput screen of the Sigma LOPAC (ADP-Glo Max, single point);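 also: final compound concentration 10µM in 5% DMSO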

The chains behind the UniProt entries cited, without tags or fusion partners. Where a name states a change or a piece, a line headed by the entry shows the natural chain unless it says otherwise.
UniProt Q92551: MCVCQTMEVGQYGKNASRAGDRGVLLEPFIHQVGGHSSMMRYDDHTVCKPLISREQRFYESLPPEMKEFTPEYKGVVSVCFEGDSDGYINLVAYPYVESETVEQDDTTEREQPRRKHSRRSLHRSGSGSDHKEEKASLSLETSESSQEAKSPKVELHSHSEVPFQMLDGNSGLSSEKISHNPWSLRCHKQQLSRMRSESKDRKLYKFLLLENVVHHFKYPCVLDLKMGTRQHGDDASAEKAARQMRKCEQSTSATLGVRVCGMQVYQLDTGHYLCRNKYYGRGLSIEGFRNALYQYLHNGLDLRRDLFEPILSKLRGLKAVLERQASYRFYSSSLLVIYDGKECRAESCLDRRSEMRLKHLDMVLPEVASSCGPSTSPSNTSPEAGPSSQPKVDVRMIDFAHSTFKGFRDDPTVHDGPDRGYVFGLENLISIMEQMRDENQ

Raw Signal (ADP-Glo Max raw signal per well)	Z-score (Z-score from raw signal with plate average and StDev)	Molecule	Raw Signal (ADP-Glo Max luminescence raw signal per well)
		Picrotoxin	51061
52501	-0.318	CCN(CC)CC(=O)Nc1c(C)cccc1C [Lidocaine hydrochloride]	
